The values below are quoted from earlier work in patent US7297707B2, “Benzothiazolyl derivatives” (Hoffmann-La Roche Inc., priority 2003, dated 2007).

This data set relates to wild-type and CB1 receptor knockout mice. The following applies: wild-type versus CB1 receptor knockout mice; cited from earlier work.

As to `Cc1c(C(=O)NN2CCCCC2)nn(-c2ccc(Cl)cc2Cl)c1-c1ccc(Cl)cc1` [SR141716A], the food intake result is reported as “reduces food intake in wild-type but not knockout mice”.
